In the NIST ThermoML archive (doi:10.1016/j.fluid.2018.09.026):
Values joined by “and” are separate entries in the source; they are usually repeats but may differ in a detail not shown here. Equal entries are not always repeated.

Conditions: Liquid; for mass density: Vibrating tube method; for viscosity: Vibrating wire viscometry

OCCOCCOCCOCCO [tetraethylene glycol]
Conditions | mass density [kg/m3] | viscosity
323.15 K, 1580 kPa | 1098.8 | –
323.15 K, 2100 kPa | 1099 | –
323.15 K, 3000 kPa | 1099.5 | –
323.15 K, 5060 kPa | 1100.5 | –
323.15 K, 7010 kPa | 1101.5 | –
323.15 K, 9930 kPa | 1102.9 | –
323.15 K, 14900 kPa | 1105.3 | –
323.15 K, 19770 kPa | 1107.6 | –
323.15 K, 24760 kPa | 1110 | –
323.15 K, 29530 kPa | 1112.1 | –
323.15 K, 34470 kPa | 1114.4 | –
323.15 K, 39440 kPa | 1116.5 | –
323.15 K, 44180 kPa | 1118.6 | –
323.15 K, 49200 kPa | 1120.6 | –
323.15 K, 54100 kPa | 1122.7 | –
323.15 K, 58970 kPa | 1124.6 | –
323.15 K, 63800 kPa | 1126.5 | –
323.15 K, 68790 kPa | 1128.4 | –
333.15 K, 100 kPa | 1090.1 | –
333.15 K, 660 kPa | 1090.4 | –
333.15 K, 1170 kPa | 1090.6 | –
333.15 K, 1590 kPa | 1090.8 | –
333.15 K, 2110 kPa | 1091.1 | –
333.15 K, 3020 kPa | 1091.6 | –
333.15 K, 5110 kPa | 1092.7 | –
333.15 K, 6990 kPa | 1093.7 | –
333.15 K, 9900 kPa | 1095.1 | –
333.15 K, 14860 kPa | 1097.7 | –
333.15 K, 19730 kPa | 1100 | –
333.15 K, 23990 kPa | 1102.6 | –
333.15 K, 29600 kPa | 1104.7 | –
333.15 K, 34450 kPa | 1107.1 | –
333.15 K, 39370 kPa | 1109.2 | –
333.15 K, 44310 kPa | 1111.5 | –
333.15 K, 49120 kPa | 1113.5 | –
333.15 K, 54060 kPa | 1115.6 | –
333.15 K, 59100 kPa | 1117.7 | –
333.15 K, 63900 kPa | 1119.7 | –
333.15 K, 68790 kPa | 1121.6 | –
333.18 K, 210 kPa | – | 10.52 mPa·s
333.18 K, 230 kPa | – | 10.58 mPa·s and 10.49 mPa·s and 10.5 mPa·s
333.18 K, 580 kPa | – | 10.53 mPa·s and 10.56 mPa·s
333.18 K, 590 kPa | – | 10.55 mPa·s [middle of 4 runs]
333.18 K, 1210 kPa | – | 10.62 mPa·s [middle of 4 runs]
333.18 K, 1990 kPa | – | 10.67 mPa·s [middle of 4 runs]
333.18 K, 2000 kPa | – | 10.65 mPa·s and 10.69 mPa·s and 10.64 mPa·s
333.18 K, 5100 kPa | – | 10.91 mPa·s
333.18 K, 5110 kPa | – | 10.89 mPa·s
333.18 K, 5120 kPa | – | 10.95 mPa·s
333.18 K, 5130 kPa | – | 10.9 mPa·s and 10.92 mPa·s
333.18 K, 8810 kPa | – | 11.19 mPa·s
333.18 K, 8820 kPa | – | 11.29 mPa·s [middle of 6 runs]
333.18 K, 9250 kPa | – | 11.28 mPa·s and 11.35 mPa·s
333.18 K, 9260 kPa | – | 11.29 mPa·s and 11.34 mPa·s
333.18 K, 9270 kPa | – | 11.34 mPa·s and 11.33 mPa·s
333.18 K, 10450 kPa | – | 11.4 mPa·s [middle of 5 runs]
333.18 K, 14500 kPa | – | 11.77 mPa·s and 11.86 mPa·s
333.18 K, 14510 kPa | – | 11.83 mPa·s [middle of 4 runs]
333.18 K, 14520 kPa | – | 11.87 mPa·s and 11.77 mPa·s
333.18 K, 19940 kPa | – | 12.33 mPa·s
333.18 K, 19950 kPa | – | 12.3 mPa·s
333.18 K, 19960 kPa | – | 12.3 mPa·s
333.18 K, 19970 kPa | – | 12.38 mPa·s
333.18 K, 19980 kPa | – | 12.33 mPa·s
333.18 K, 20000 kPa | – | 12.37 mPa·s
333.18 K, 29210 kPa | – | 13.27 mPa·s
333.18 K, 29240 kPa | – | 13.21 mPa·s
333.18 K, 29260 kPa | – | 13.21 mPa·s
333.18 K, 29280 kPa | – | 13.24 mPa·s
333.18 K, 29330 kPa | – | 13.27 mPa·s
333.18 K, 29350 kPa | – | 13.24 mPa·s
333.18 K, 29790 kPa | – | 13.44 mPa·s
333.18 K, 50350 kPa | – | 15.38 mPa·s
333.18 K, 50360 kPa | – | 15.39 mPa·s
333.18 K, 50380 kPa | – | 15.45 mPa·s
333.18 K, 50390 kPa | – | 15.42 mPa·s
333.18 K, 50400 kPa | – | 15.36 mPa·s
333.18 K, 50440 kPa | – | 15.38 mPa·s
333.18 K, 71140 kPa | – | 17.9 mPa·s
333.18 K, 71160 kPa | – | 17.9 mPa·s
333.18 K, 71260 kPa | – | 17.88 mPa·s
343.15 K, 100 kPa | 1082.1 | –
343.15 K, 720 kPa | 1082.5 | –
343.15 K, 1090 kPa | 1082.7 | –
343.15 K, 1600 kPa | 1082.9 | –
343.15 K, 2060 kPa | 1083.2 | –
343.15 K, 3100 kPa | 1083.7 | –
343.15 K, 5040 kPa | 1084.8 | –
343.15 K, 6870 kPa | 1085.8 | –
343.15 K, 9930 kPa | 1087.4 | –
343.15 K, 14830 kPa | 1090 | –
343.15 K, 19790 kPa | 1092.5 | –
343.15 K, 24630 kPa | 1095 | –
343.15 K, 29580 kPa | 1097.4 | –
343.15 K, 34440 kPa | 1099.7 | –
343.15 K, 39430 kPa | 1102.1 | –
343.15 K, 44410 kPa | 1104.4 | –
343.15 K, 49170 kPa | 1106.5 | –
343.15 K, 54160 kPa | 1108.6 | –
343.15 K, 58970 kPa | 1110.7 | –
343.15 K, 63920 kPa | 1112.8 | –
343.15 K, 68720 kPa | 1114.7 | –
353.15 K, 100 kPa | 1074.1 | –
353.15 K, 560 kPa | 1074.4 | –
353.15 K, 1190 kPa | 1074.7 | –
353.15 K, 1660 kPa | 1075 | –
353.15 K, 2160 kPa | 1075.3 | –
353.15 K, 3100 kPa | 1075.8 | –
353.15 K, 5040 kPa | 1076.9 | –
353.15 K, 6910 kPa | 1078 | –
353.15 K, 10040 kPa | 1079.7 | –
353.15 K, 14770 kPa | 1082.3 | –
353.15 K, 19790 kPa | 1085 | –
353.15 K, 24570 kPa | 1087.5 | –
353.15 K, 29460 kPa | 1090 | –
353.15 K, 34560 kPa | 1092.5 | –
353.15 K, 39340 kPa | 1094.8 | –
353.15 K, 44310 kPa | 1097.2 | –
353.15 K, 49190 kPa | 1099.5 | –
353.15 K, 54020 kPa | 1101.6 | –
353.15 K, 59160 kPa | 1103.9 | –
353.15 K, 63870 kPa | 1106 | –
353.15 K, 68800 kPa | 1108 | –
362.6 K, 200 kPa | – | 4.755 mPa·s and 4.776 mPa·s
362.6 K, 210 kPa | – | 4.772 mPa·s [middle of 5 runs]
362.6 K, 220 kPa | – | 4.782 mPa·s
362.6 K, 550 kPa | – | 4.755 mPa·s and 4.773 mPa·s and 4.788 mPa·s
362.6 K, 560 kPa | – | 4.783 mPa·s [middle of 5 runs]
362.6 K, 570 kPa | – | 4.774 mPa·s
362.6 K, 1370 kPa | – | 4.809 mPa·s and 4.792 mPa·s and 4.804 mPa·s
362.6 K, 1380 kPa | – | 4.833 mPa·s and 4.837 mPa·s and 4.846 mPa·s
362.6 K, 2190 kPa | – | 4.862 mPa·s
362.6 K, 2200 kPa | – | 4.875 mPa·s
362.6 K, 2260 kPa | – | 4.835 mPa·s [middle of 6 runs]
362.6 K, 6010 kPa | – | 4.989 mPa·s
362.6 K, 6020 kPa | – | 5.019 mPa·s [middle of 5 runs]
362.6 K, 10540 kPa | – | 5.137 mPa·s
362.6 K, 10550 kPa | – | 5.165 mPa·s [middle of 5 runs]
362.6 K, 15100 kPa | – | 5.33 mPa·s
362.6 K, 15110 kPa | – | 5.326 mPa·s [middle of 4 runs]
362.6 K, 19840 kPa | – | 5.52 mPa·s [middle of 5 runs]
362.6 K, 29710 kPa | – | 5.931 mPa·s
362.6 K, 29720 kPa | – | 5.941 mPa·s [middle of 4 runs]
362.6 K, 29730 kPa | – | 5.921 mPa·s
362.6 K, 50180 kPa | – | 6.768 mPa·s
362.6 K, 70370 kPa | – | 7.804 mPa·s
362.6 K, 70380 kPa | – | 7.821 mPa·s
362.6 K, 70430 kPa | – | 7.826 mPa·s
362.6 K, 70450 kPa | – | 7.826 mPa·s
363.15 K, 100 kPa | 1066.1 | –
363.15 K, 650 kPa | 1066.5 | –
363.15 K, 1150 kPa | 1066.7 | –
363.15 K, 1550 kPa | 1067 | –
363.15 K, 2070 kPa | 1067.2 | –
363.15 K, 3090 kPa | 1067.9 | –
363.15 K, 5060 kPa | 1069 | –
363.15 K, 7010 kPa | 1070.2 | –
363.15 K, 9860 kPa | 1071.8 | –
363.15 K, 14820 kPa | 1074.7 | –
363.15 K, 19750 kPa | 1077.4 | –
363.15 K, 24740 kPa | 1080.1 | –
363.15 K, 29560 kPa | 1082.6 | –
363.15 K, 34540 kPa | 1085.2 | –
363.15 K, 39360 kPa | 1087.6 | –
363.15 K, 44280 kPa | 1090.1 | –
363.15 K, 49130 kPa | 1092.3 | –
363.15 K, 54040 kPa | 1094.7 | –
363.15 K, 59030 kPa | 1097 | –
363.15 K, 63900 kPa | 1099.1 | –
363.15 K, 68810 kPa | 1101.6 | –
